By pKb is commonly meant the Kb on a negative log10 scale, so that one unit is a factor of ten.

Data on one compound can be found in ChEMBL document CHEMBL1132324, “Structure-activity relationships in 1,4-benzodioxan-related compounds. 6. Role of the dioxane unit on selectivity for alpha(1)-adrenoreceptor subtypes” (J Med Chem, 1999).

This test concerns Alpha-1B adrenergic receptor (Cavia porcellus). The test can be described thus: Antagonist affinity was expressed as apparent pKb at Alpha-1B adrenergic receptor on isolated Guinea pig spleen (Alpha-1B).

In the case of `COc1cccc(OC)c1OCCNC[C@H]1Oc2ccccc2O[C@@H]1c1ccccc1`, the pKb turned out to be 5.55.
